Laboratory results: US20070258988A1

Key:
rMOR-1C1 (rat) [1] = assay: competition against [3H]DAMGO (~1 nM), membranes of stable CHO transfectants
rMOR-1D (rat) = assay: as above
hMOR-1B4 (human) = hMOR-1B4 (human) (UniProt P35372); assay: as above
hMOR-1B2 (human) = hMOR-1B2 (human) (UniProt P35372); assay: as above
hMOR-1A (human) = assay: as above
hMOR-1B5 (human) = hMOR-1B5 (human) (UniProt P35372); assay: as above
hMOR-1 (human) = hMOR-1 (human) (UniProt P35372); assay: as above
hMOR-1B3 (human) = hMOR-1B3 (human) (UniProt P35372); assay: as above
rMOR-1 (no Exon 4) (rat) [2] = target: rMOR-1 (no Exon 4) (rat) (UniProt P33535); assay: as above
hMOR-1Y (human) = hMOR-1Y (human) (UniProt P35372); assay: as above
rMOR-1A (rat) [3] = assay: as above
rMOR-1 (rat) [4] = target: rMOR-1 (rat) (UniProt P33535); assay: as above
rMOR-1C1 (rat) [5] = assay: cell-based or functional assay
rMOR-1A (rat) [6] = assay: cell-based or functional assay
rMOR-1 (no Exon 4) (rat) [7] = target: rMOR-1 (no Exon 4) (rat) (UniProt P33535); assay: cell-based or functional assay
rMOR-1 (rat) [8] = target: rMOR-1 (rat) (UniProt P33535); assay: cell-based or functional assay

| Substance | pKi (rMOR-1C1 (rat) [1]) | pKi (rMOR-1D (rat)) | pKi (hMOR-1B4 (human)) | pKi (hMOR-1B2 (human)) | pKi (hMOR-1A (human)) | pKi (hMOR-1B5 (human)) | pKi (hMOR-1 (human)) | pKi (hMOR-1B3 (human)) | pKi (rMOR-1 (no Exon 4) (rat) [2]) | pKi (hMOR-1Y (human)) | pKi (rMOR-1A (rat) [3]) | pKi (rMOR-1 (rat) [4]) | EC50 (nM), stimulation of [35S]GTPγS binding (rMOR-1C1 (rat) [5]) [nM] | EC50 (nM), stimulation of [35S]GTPγS binding (rMOR-1A (rat) [6]) [nM] | EC50 (nM), stimulation of [35S]GTPγS binding (rMOR-1 (no Exon 4) (rat) [7]) [nM] | EC50 (nM), stimulation of [35S]GTPγS binding (rMOR-1 (rat) [8]) [nM] |
| --- | --- | --- | --- | --- | --- | --- | --- | --- | --- | --- | --- | --- | --- | --- | --- | --- |
| Endomorphin 2 (peptide) | 8.00 | 8.12 | 7.65 | 7.70 | 8.25 | 8.02 | 7.47 | 8.20 | 8.04 | 8.03 |  |  |  |  |  |  |
| Endomorphin 1 (peptide) |  |  |  |  |  |  |  |  | 8.36 |  | 8.19 | 8.39 | 54 | 15 | 114 | 14 |
| DADLE (peptide) |  |  |  |  |  |  |  |  |  | 8.19 |  |  |  |  |  |  |

pKi: −log10 of the molar value.
